{"source": "patent US8785600B2", "about": "“Anti-GCC antibody molecules and related compositions and methods” (Millennium Pharmaceuticals, Inc., priority 2009, dated 2014)", "test_system": "CT26 hGCC/luc #32 cells", "test": "Pilot efficacy study with naked antibody in CT26 hGCC/luc #32 disseminated model", "details": "vs vehicle or 209-treated groups", "data": [{"substance": "5F9: Human anti-GCC mAb (IgG2, kappa) of hybridoma 5F9, ATCC PTA-8132; VH SEQ ID NO:18, VL SEQ ID NO:20; also engineered as IgG1", "values": [{"measurement": "Lung tumor nodules (visual inspection)", "value": "fewer tumor nodules"}]}]}
